PMC10604324, “Implications for Combination Therapy of Selective Monoamine Reuptake Inhibitors on Dopamine Transporters” (Biomedicines, 2023)

Chains of the proteins cited; added tags and fusions are not shown.
UniProt Q01959, whole entry: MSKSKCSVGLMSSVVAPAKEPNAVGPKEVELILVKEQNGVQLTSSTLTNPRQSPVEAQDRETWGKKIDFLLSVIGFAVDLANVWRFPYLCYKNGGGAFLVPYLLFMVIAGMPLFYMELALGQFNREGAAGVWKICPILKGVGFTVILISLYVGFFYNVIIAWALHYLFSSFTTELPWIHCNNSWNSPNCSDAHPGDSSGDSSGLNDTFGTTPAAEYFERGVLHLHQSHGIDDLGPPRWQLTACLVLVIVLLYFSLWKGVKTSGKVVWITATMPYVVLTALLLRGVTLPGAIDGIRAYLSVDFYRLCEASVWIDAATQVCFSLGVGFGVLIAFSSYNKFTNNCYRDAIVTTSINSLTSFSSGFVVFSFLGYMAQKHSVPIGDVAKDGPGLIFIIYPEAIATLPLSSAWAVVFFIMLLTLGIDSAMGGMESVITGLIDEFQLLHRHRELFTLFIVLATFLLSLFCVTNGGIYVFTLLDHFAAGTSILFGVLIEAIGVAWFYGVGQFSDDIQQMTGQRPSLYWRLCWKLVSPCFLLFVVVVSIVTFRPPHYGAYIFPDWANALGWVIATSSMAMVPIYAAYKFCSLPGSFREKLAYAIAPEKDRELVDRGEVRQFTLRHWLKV

Biological target: human DAT (Homo sapiens, UniProt Q01959)
Assay: Fluorescence-based neurotransmitter uptake assay, HEK-hDAT cells
Conditions: monovalent ions

C[N+](C)(C)CCO [Choline]
fold lower potency for DAT inhibition than the other ions tested: approximately 10 fold
